# Rows were chosen to be rich in hits. Some 2.2% of all compounds tested hit in one or more screens of this group.
# PDI turbidity: blocks human protein disulfide isomerase activity | P07237 | PDI insulin aggregation turbidity, A650, 90 min | inhibition, % at 10 µM | actives 0.052% (n = 350,000);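 active = mean inhibition across replicates of 30% or more, whatever share of single replicates reach that level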
# Yeast UUG start: modulators of start codon recognition fidelity in yeast; S. cerevisiae UUG-firefly luciferase reporter, luminescence/redox ratio; AID 602363; 350,000 tested, 0.13% active; activity score, % at 18.7 µM;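 active = replicate mean at a twofold rise or more, about +100% in these data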;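 also: firefly luciferase made from a UUG start codon reports start codon fidelity; reporter light over untreated wells divided by growth signal over untreated wells; some hits fall short of that in this replicate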
# S100A4 inh HTS: blocks human S100A4 binding to myosin IIA peptide | inhibition, % at 10.7 µM | S100A4/TAMRA-MyoIIA peptide fluorescence polarization | AID 652163 | actives 0.14% (n = 360,000) | P26447;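 active = mean inhibition of at least 70% across replicates, with every replicate also reaching that level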
#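 incubation = readout 5 min after mixing, signal stable up to 60 min | system = S100A4 monomer protein | buffer or medium = HEPES pH 7.2 with CaCl2, KCl, NaCl, DTT, Triton | benchmarks = neutral control DMSO, positive control TFP | also added = fluorescent myosin IIA peptide, 5 nM | compound dosing = one concentration per compound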
# FGF22 binding: shifts melting point of recombinant human FGF22; Q9HCT0; recombinant FGF22 thermal shift, SYPRO orange fluorescence; percent of sucrose octasulfate shift, DMSO zero; activity (Tm shift, normalised), % at 9.99 µM; actives 1.5% (n = 340,000); AID 651658;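 active = mean Tm shift, scaled 0 neutral to 100 positive control, at about 1.3% or above, every replicate too, limit read from the data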
# SIRT5 block: blocks human SIRT5 desuccinylation of peptide; inhibition, % at 15 µM; Q9NXA8; actives 1.1% (n = 330,000); AID 652115; Purified SirT5, succinyl-peptide AMC, trypsin-coupled fluorescence; in the data active = inhibition above about 15%
# ERp5 block: blocks human ERp5 reductase activity on insulin; Q15084; ERp5 insulin aggregation, absorbance 650 nm, 90 min; inhibition, % at 9.99 µM; actives 0.05% (n = 350,000);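 active = mean replicate inhibition above about 25%, with every replicate also reaching it, limit read from the data, passing the limit was not always enough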
# * hit, by the source's call; . = no result given.
mol | PDI turbidity | Yeast UUG start | S100A4 inh HTS | FGF22 binding | SIRT5 block | ERp5 block
Cc1ccc(S(=O)(=O)N(C)C[C@H]2Oc3ccc(NC(=O)Nc4ccc(C(F)(F)F)cc4)cc3C(=O)N([C@H](C)CO)C[C@H]2C)cc1 | . | -16 | 22 | 2.7* | 7 | -1
Cc1ccc(S(=O)(=O)N(C)C[C@H]2Oc3ccc(NC(=O)Nc4ccccc4)cc3C(=O)N([C@@H](C)CO)C[C@H]2C)cc1 | . | 15 | 102* | 0 | 4 | -1
Cc1ccc(S(=O)(=O)N(C)C[C@@H]2Oc3ccc(NC(=O)Nc4ccc(C(F)(F)F)cc4)cc3C(=O)N([C@H](C)CO)C[C@H]2C)cc1 | . | -3 | -8 | 0 | -3 | 3
COc1ccc(-n2c(C)nn(CCOc3ccccc3)c2=O)cc1 | -4 | . | -5 | 0 | 1 | -2
Cc1nn(CC2CC2)c(=O)n1-c1ccc(Oc2ccccc2)cc1 | 2 | . | -10 | 43* | -5 | 5
COc1cc(NC(=O)CSc2nncn2C)c(C)cc1[N+](=O)[O-] | 1 | -19 | -2 | 43* | -4 | -3
CN1CCN(C(=O)C[C@@H]2C[C@H]3c4cc(NC(=O)Nc5ccccc5F)ccc4O[C@H]3[C@H](CO)O2)CC1 | . | -4 | . | 0 | . | .
CCCNC(=O)[C@@H]1[C@@H](CO)[C@@H]2Cn3c(ccc(-c4ccccc4OC)c3=O)[C@@H]2N1S(C)(=O)=O | . | . | 1 | . | -22 | -9
O=C(Nc1ccc(F)c(Cl)c1)Nc1cnccn1 | -1 | . | -7 | 44* | -2 | -1
CC(C)(C)NC(=O)CSc1nnc(NC(=O)c2ccccc2Cl)s1 | 5 | . | -2 | 1 | -6 | -8
CCOC(=O)CNC(=O)CSc1nnc(NC(=O)c2ccccc2Cl)s1 | -5 | -15 | -5 | 43* | -1 | 4
CC(=O)N1C(=O)N(C(C)=O)C2C1N(C)C(=O)N2C(C)=O (stereo not drawn) | -2 | . | 3 | 43* | -1 | -1
CC(=O)N1C(=O)N(C)C2C1N(C(C)=O)C(=O)N2C (stereo not drawn) | 14 | -24 | . | . | . | .
O=C1NC(Cc2c[nH]c3ccccc23)C(=O)N1Cc1cccc2ccccc12 (stereo not drawn) | 4 | -12 | 3 | 43* | -2 | 0
Cc1ccc(CN2C(=O)NC(Cc3c[nH]c4ccccc34)C2=O)cc1 (stereo not drawn) | -2 | -16 | . | . | . | .
CNC(=O)CN1C(=O)NC(Cc2c[nH]c3ccccc23)C1=O (stereo not drawn) | 4 | -10 | 1 | 0 | -1 | 3
CC(C)CNC(=O)CN1C(=O)NC(Cc2c[nH]c3ccccc23)C1=O (stereo not drawn) | 4 | . | 8 | 43* | -5 | 3
Cc1cc2occ(CC(=O)NNC(=O)c3ccccc3)c2cc1C | 5 | -8 | -7 | 0 | -3 | 66*
COc1ccc(-c2csc3nc(C(C)C)oc(=O)c23)cc1OC | 1 | -3 | -3 | . | 24* | 5
Nc1[nH]ncc1-c1ccccc1 | 17 | . | 3 | 44* | 0 | -7
Nc1[nH]ncc1-c1ccc(F)cc1 | 5 | -9 | -2 | 0 | -4 | 0
C[C@H](CO)N1C[C@H](C)[C@@H](CN(C)Cc2ccc(Cl)c(Cl)c2)Oc2ccc(NC(=O)CCCCCC(=O)Nc3ccccc3N)cc2CC1=O | . | . | 1 | -1 | 26* | 2
C[C@H](CO)N1C[C@H](C)[C@H](CN(C)Cc2ccc(Cl)c(Cl)c2)Oc2ccc(NC(=O)CCCCCC(=O)Nc3ccccc3N)cc2C1=O | . | 1 | -6 | 0 | 24* | -1
C[C@H]1CN([C@@H](C)CO)C(=O)Cc2cc(NC(=O)CCCCCC(=O)Nc3ccccc3N)ccc2O[C@H]1CN(C)Cc1ccc(Cl)c(Cl)c1 | . | 4 | -5 | 0 | 5 | 2
CC(=O)N1[C@H](CO)[C@H](c2ccccc2)C12CN(C(=O)Cc1ccccc1)C2 | . | . | 2 | 0 | -4 | 2
COc1ccc(/C=N\NC(=O)c2ccc(Cn3cc(Br)c([N+](=O)[O-])n3)o2)c(OC)c1C | -9 | . | -8 | 44* | -3 | -2
O=C(CNc1ccc(Cl)cc1)c1ccc(Br)cc1 | 4 | -7 | -2 | 0 | 1 | 0
O=C(CNc1ccc(Br)cc1)c1ccc(O)cc1 | 17 | . | -7 | 1 | 17* | -1
Cc1noc(C)c1S(=O)(=O)N(C)C[C@H]1Oc2ccc(N(C)C)cc2CC(=O)N([C@H](C)CO)C[C@H]1C | . | 24 | 129* | . | -2 | 1
Cc1noc(C)c1S(=O)(=O)N(C)C[C@H]1Oc2ccc(NC(=O)Cn3cnnn3)cc2CC(=O)N([C@H](C)CO)C[C@H]1C | . | 6 | 4 | 0 | 28* | 3
C/C=C/c1cnc2c(c1)C(=O)N([C@H](C)CO)C[C@H](C)[C@H](CN(C)Cc1ccc3c(c1)OCO3)O2 | . | -5 | -8 | 0 | -3 | -4
CNC(=O)C[C@@H]1CC[C@H]2[C@@H](COc3ccc(NC(=O)NC(C)C)cc3C(=O)N2C)O1 | . | -18 | . | 0 | . | .
CCOc1ccc(/C=C/C(=O)CCC(=O)O)cc1 | -11 | -23 | 6 | 43* | 1 | 1
CSc1ncc(C(=O)Nc2ccc(C(C)=O)cc2)c(-c2ccccc2)n1 | -13 | -24 | -5 | 0 | 21* | -2
Cc1noc(C)c1S(=O)(=O)Nc1ccc2c(c1)CC(=O)N([C@H](C)CO)C[C@@H](C)[C@@H](CN(C)S(C)(=O)=O)O2 | . | 12 | . | 0 | . | .
O=c1c(O[C@@H]2O[C@H](CO)[C@@H](O)[C@H](O)[C@H]2O)c(-c2ccc(O)cc2)oc2cc(O)cc(O)c12 | 37* | -6 | . | . | . | .
C[C@@H]1O[C@@H](OC[C@H]2O[C@@H](Oc3c(-c4ccc(O)c(O)c4)oc4cc(O)cc(O)c4c3=O)[C@H](O)[C@@H](O)[C@@H]2O)[C@H](O)[C@H](O)[C@H]1O | 58* | 14 | -2 | 0 | 2 | 1
CC1OC(OCC2OC(Oc3c(-c4ccc(O)cc4)oc4cc(O)cc(O)c4c3=O)C(O)C(O)C2O)C(O)C(O)C1O (stereo not drawn) | . | 3 | -2 | 0 | 6 | -1
Cc1ccccc1-c1nc(CS(=O)(=O)CC(=O)NCCCN2CCCC2)c(C)o1 | . | -7 | -4 | 0 | 17* | -5
COc1ccc2nc(NC(=O)CSc3nnnn3C)sc2c1 | 2 | . | -5 | 43* | 1 | -2

# An excerpt of these results, with values under each structure:
# Order of values – PDI turbidity	Yeast UUG start	S100A4 inh HTS	FGF22 binding	SIRT5 block	ERp5 block
- Cc1ccccc1-c1nc(CS(=O)(=O)CC(=O)NCCCN2CCCC2)c(C)o1
 : .	-7	-4	0	17*	-5
- Cc1noc(C)c1S(=O)(=O)Nc1ccc2c(c1)CC(=O)N([C@H](C)CO)C[C@@H](C)[C@@H](CN(C)S(C)(=O)=O)O2
 : .	12	.	0	.	.
- CSc1ncc(C(=O)Nc2ccc(C(C)=O)cc2)c(-c2ccccc2)n1
 : -13	-24	-5	0	21*	-2
- CCOc1ccc(/C=C/C(=O)CCC(=O)O)cc1
 : -11	-23	6	43*	1	1
- COc1ccc2nc(NC(=O)CSc3nnnn3C)sc2c1
 : 2	.	-5	43*	1	-2

# New compounds follow.
mol | PDI turbidity | Yeast UUG start | S100A4 inh HTS | FGF22 binding | SIRT5 block | ERp5 block
Cc1ccc(C(=O)NNC(=O)c2cccc(Br)c2)cc1 | 5 | -4 | 8 | 0 | -2 | -2
CC(C)NC(=O)c1cccc(Br)c1 | 4 | -23 | -1 | 1 | 28* | 2
O=C(Cc1ccccc1)N1C[C@@H]2[C@H](c3ccccc31)[C@H](CO)N2C(=O)C1CCCCC1 | . | 4 | 16 | 0 | 2 | -1
Cc1cc(CNC(=O)c2cc(COc3c(F)cccc3F)on2)nn1C | 4 | . | 2 | 44* | 1 | 3

# Bioassay records as filed in PubChem.
